Results on 2 substances are retold here after article PMC3725402, “Evolution of the key alkaloid enzyme putrescine N-methyltransferase from spermidine synthase” (Frontiers in Plant Science, 2013).

The term Km denotes the substrate concentration at which the rate is half of its maximum. The kcat is the maximal rate divided by the concentration of active sites.

Data set [1] has as its system C[S+](CC[C@H](N)C(=O)O)C[C@H]1O[C@@H](n2cnc3c(N)ncnc32)[C@H](O)[C@@H]1O. The experiment in a line: purified protein. The conditions noted are these: PMT activity, co-substrate putrescine, 20 mM HEPES pH 8.0, 37°C, 2 mM DTT, 1 mM ascorbic acid.
In a further data set the test system is NCCCCN. As to the kind of experiment: purified protein. The note with it: PMT activity, co-substrate SAM, 20 mM HEPES pH 8.0, 37°C, 2 mM DTT, 1 mM ascorbic acid.

Turning to “DsPMT (putrescine N-methyltransferase) (Datura stramonium)”, in data set [1], the Km came out at 13 ± 1.97 µM and the turnover number (kcat) is 1.98 s⁻¹. In addition, the kcat in the data set with NCCCCN turned out to be 1.98 s⁻¹.
“DsPMT (putrescine N-methyltransferase) (Datura stramonium; H108L)”: the Michaelis constant (Km) in data set [1] came out at 99 ± 11.68 µM. Besides, the turnover number (kcat) (in data set [1]; with NCCCCN) was 0.78 s⁻¹ each time.
